These are literature values, as cited in patent US8642793B1, “Biosurfactant produced by Aureobasidium pullulans” (Gyeongbuk Institute for Marine Bio-industry, priority 2012, dated 2014).

For this data set the following is noted: reference liquids of Table 1, no amount given; cited from earlier work.

Regarding Mercury, the Surface tension is on record as 486 dyne/cm.
